# Laboratory results taken from patent publication US8841083B2, “PSA capture agents, compositions, methods and preparation thereof” (California Institute of Technology, priority 2011, dated 2014).
# Assays:
# [1] = room temperature or −80° C., HPLC
substance,measurement,setting,value
biotin-PEG5-cyclic(CVFAHNYDYLVC)-Tz5-Gllffk-Tz5-rrivk [PSA capture agent triligand],integrity after incubation with human serum,"4-hour incubation, 37° C., 25% human serum",still intact
same,fragmentation by HPLC analysis,"24 hours, 37° C., 25% human serum",no fragmentation was observed
same,stable to proteolytic degradation in human serum,physiological temperature and buffer,more than 24 h
same,stability as a lyophilized powder,[1],more than 6 weeks
